Measured values from PubChem BioAssay AID2288 (National Center for Advancing Translational Sciences (NCATS), 2010).
Where “and” joins values, the source holds several entries; their conditions need not be identical. Equal values may be shown once. The entries are a selection whose mix differs from that of the whole data set. Calls of active or inactive are those of the source. Calls follow the shape of the dose curve; as a rule, active = well fitted curve in the direction sought with a large enough effect; inconclusive = small, poorly fitted or top-dose-only effect, or another doubt; inactive = no such curve, though single readings can be large or run the other way.

assay: qHTS Assay for Modulators of miRNAs and/orActivators of miR-21; details: HeLa miR-21 FLuc reporter, luciferase, 48 h; at 38.3 µM (top of the series);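 also: % of control where 0% means no effect; miR-21 action dims this reporter so a rising signal means less miR-21 action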

| SMILES | activity change, positive = activation |
| --- | --- |
| O=C(NC1CCS(=O)(=O)C1)NP(=S)(Oc1ccccc1)Oc1ccccc1 (stereo not given) | inactive: -5.14% |
| Cc1ccc(NP(=O)(Oc2cccc(C)c2)Oc2cccc(C)c2)nc1 | inactive: 2.07% |
| CCOC(=O)NC(Sc1ccccc1)C(Cl)(Cl)Cl (stereo not given) | inactive: 0.5% |
| c1ccc(-c2nn[nH]n2)c(-c2nn[nH]n2)c1 | inactive: -2.54% |
| C(Cc1nn[nH]n1)Cc1nn[nH]n1 | inactive: 2.29% |
| Nc1ccc([As](=O)(O)c2ccc([N+](=O)[O-])cc2)cc1 | inactive: 1.46% |
| O=C(OC1CN2CCC1CC2)c1cccc(Cl)c1 (stereo not given) | inactive: -4.77% |
| O=[N+]([O-])c1ccc(O)c(/C=N/Nc2ccc([N+](=O)[O-])cc2[N+](=O)[O-])c1 | inactive: 26.8% |
| CC(=O)NC(SC(=S)N(C)C)C(Cl)(Cl)Cl (stereo not given) | inactive: 17.5% |
| O=[N+]([O-])c1ccc(OP2(=O)COCCO2)cc1 (stereo not given) | inactive: 2.75% |
| O=[N+]([O-])c1ncn(CCn2cnc([N+](=O)[O-])n2)n1 | inactive: 0.0625% |
| Cc1cc(-c2cccc3ccccc23)c(C)cn1.O=[N+]([O-])c1cc([N+](=O)[O-])c(O)c([N+](=O)[O-])c1 | inactive: 15.3% |
| O=[As](O)(c1ccccc1)c1ccc(O)cc1 | inactive: 3.93% |
| C[C@H]1OP(=O)(Oc2ccccc2)[C@H](O)[C@H](O)[C@H]1N=[N+]=[N-] (stereo not given in full) | inactive: 1.1% |
| CN(C)CCOC(=O)C(O)(c1ccccc1)C1CCCCC1 (stereo not given) | inactive: 1.08% |
| O=P(Nc1nc2ccccc2s1)(c1ccccc1)c1ccccc1 | inactive: -9.7% |
| COc1ccc(NP(C)(=O)Oc2ccccc2OC)cc1 (stereo not given) | inactive: 3.45% |
| COc1ccc(OP(C)(=O)Nc2cccc(Br)c2)cc1 (stereo not given) | inactive: -4.07% |
| O=P(Nc1ccccn1)(c1ccc(Br)cc1)c1ccc(Br)cc1 | inactive: 9.28% |
| CN(C)C1(CNC(=O)c2ccc(Cl)c(S(N)(=O)=O)c2)CCCCC1 | inactive: 2.04% |
| Cc1ccccc1NP(C)(=O)Nc1ccccc1C | inactive: -5.69% |
| CP(=O)(Nc1ccc2c(c1)OCCO2)Oc1ccccc1 (stereo not given) | inactive: -11.7% |

| SMILES | activity change, positive = activation |
| --- | --- |
| CCOP(C)(=S)SCC(=O)NC(C)(CC)C(=O)O (stereo not given) | inactive: -6.59% |
| c1nnnn1CCn1cnnn1 | inactive: -0.02% |
| CP(=O)(Nc1ccc(SC(F)(F)F)cc1)Oc1ccc(F)cc1 (stereo not given) | inactive: 7.95% |
| CC(C)C(=O)NC(Sc1ccccc1)C(Cl)(Cl)Cl (stereo not given) | inactive: -1.36% |
| O=P(Nc1nccs1)(c1ccccc1)c1ccccc1 | inactive: -0.196% |
| CN(C)C(=O)OCCc1n(C)cc[n+]1C | inactive: 0.538% |
| CC(C)=N/N=C(\N)N[N+](=O)[O-] | inactive: -1.02% |
| CC1CCN(C(=O)Oc2c(Cl)cc(Cl)c3cccnc23)CC1 | inactive: -19.2% |
| COc1ccccc1OP(C)(=O)Nc1ccccc1Br (stereo not given) | inactive: 2.89% |
| CC(C)(C)c1ccc(OP(C)(=O)O)cc1 | inactive: 0.124% |
| Nc1ccc([As](=O)(O)c2ccc(N)cc2)cc1 | inactive: -0.392% |
| CP(=O)(Nc1ccc(Cl)cc1)Oc1ccc(F)cc1 (stereo not given) | inactive: -0.633% |
| CCN(/C(=N/P(=O)(N1CCOCC1)N1CCOCC1)N1CCOCC1)c1ccc(OC)cc1 | inactive: -1.54% |
| O=C(OCCCN1CCCC1)C(O)(c1ccccc1)C1CCCCC1 (stereo not given) | inactive: -2.29% |
| O=[N+]([O-])c1cccc2n[nH]nc12 | inactive: -9.32% |
| CC(=O)N1C2C3N(C(C)=O)C1C1N(C(C)=O)C(C(N1C(C)=O)N3C(C)=O)N2C(C)=O | inactive: -1.28% |
| COc1ccccc1OP(C)(=O)Nc1c(C)n(C)n(-c2ccccc2)c1=O (stereo not given) | inactive: -4.51% |
| CCc1ccc(OP(C)(=O)Nc2cccnc2)cc1 (stereo not given) | inactive: 7.47% |
| O=[N+]([O-])c1cc([N+](=O)[O-])c(CCNc2ccccc2)c([N+](=O)[O-])c1 | inactive: 20.6% |
| CP(=O)(Oc1ccccc1)N1CCOC1=O (stereo not given) | inactive: -2.85% |
| Cc1ccc(NP(=O)(Oc2ccccc2)Oc2ccccc2)nc1 | inactive: 5.22% |
| COc1ccc(OP(C)(=O)Nc2ccc(Br)cc2)cc1 (stereo not given) | inactive: -12.8% |

| SMILES | activity change, positive = activation |
| --- | --- |
| COc1ccc(C2=NCC(CBr)S2)cc1 (stereo not given) | inactive: -6.38% |
| CCN(CC)CC(O)COC(=O)C(O)(c1ccccc1)C1CCCCC1 (stereo not given) | inactive: -6.04% |
| O=[N+]([O-])c1cccc(NC2=NCC(CBr)S2)c1 (stereo not given) | inactive: -0.978% |
| O=C(O)CNc1ccc([As](=O)(O)O)cc1 | inactive: 1.53% |
| CC(C)(C)C(=O)NC(Sc1ccncn1)C(Cl)(Cl)Cl (stereo not given) | inactive: -1.15% |
| O=[N+]([O-])c1ncn(CCn2ncnc2[N+](=O)[O-])n1 | inactive: 4.12% |
| O=C(Nc1cc([As](=O)(O)O)ccc1O)c1ccccc1 | inactive: -0.841% |
| CCOC(=O)c1ccc(NP(C)(=O)Oc2ccc(Cl)cc2)cc1 (stereo not given) | inactive: -5.48% |
| CP(=O)(OC12CC3CC(CC(C3)C1)C2)OC12CC3CC(CC(C3)C1)C2 | inactive: -1.42% |
| CCN(N=Nc1nonc1N)c1nonc1N | inactive: -4.88% |
| CP(=O)(Nc1ccc(Cl)cc1Cl)Oc1ccccc1 (stereo not given) | inactive: -6.7% |
| CP(=O)(OCCOc1ccccc1)OCCOc1ccccc1 | inactive: -8.69% |
| Nc1cccc2ccc([As](=O)(O)O)cc12 | inactive: 2.79% |
| Cc1nc2ccc3ccccc3c2o1.O=[N+]([O-])c1cc([N+](=O)[O-])c(O)c([N+](=O)[O-])c1 | inactive: -29.2% |
| O=[N+]([O-])c1cc([N+](=O)[O-])c(CCN2CCOCC2)c([N+](=O)[O-])c1 | inactive: 6.69% |
| COc1ccccc1OP(C)(=O)Nc1ccc(C)c(C)c1 (stereo not given) | inactive: -8.97% |
| Cc1ccc(NP(=O)(Oc2ccccc2F)Oc2ccccc2F)nc1 | inactive: -1.18% |
| Cc1cc(SC(NC(=O)c2ccc(F)cc2)C(Cl)(Cl)Cl)ncn1 (stereo not given) | inactive: -8.8% |
| CCOP(=O)(Nc1ccccc1)OCC | inactive: -0.615% and inactive: -8.29% |
| COc1ccc(OP(C)(=O)Nc2ccccc2Br)cc1 (stereo not given) | inactive: -1.1% |
| CC(=O)Nc1ccc([As](=O)(O)O)cc1 | inactive: -2.81% |
| O=C(O)c1ccccc1[As](=O)(O)O | inactive: 7.39% |

| SMILES | activity change, positive = activation |
| --- | --- |
| O=P(Nc1nc2ccc(Cl)cc2s1)(c1ccccc1)c1ccccc1 | inactive: 4.49% |
| Cc1cc(C)cc(OP(C)(=O)Nc2cccc(C(F)(F)F)c2)c1 (stereo not given) | inactive: -3.75% |
| COc1ccccc1OP(C)(=O)Nc1ccc(C)cc1C (stereo not given) | inactive: -6.86% |
| CP(=O)(Nc1ccccn1)Oc1ccccc1 (stereo not given) | inactive: -5.72% |
| CCc1ccc(OP(C)(=O)O)cc1 | inactive: -0.11% |
| Cc1c(NP(C)(=O)Oc2ccc(C(C)C)cc2)c(=O)n(-c2ccccc2)n1C (stereo not given) | inactive: 0.0525% |
| Nc1cc(N)c2nonc2c1[N+](=O)[O-] | inactive: -3.44% |
| CC(C)CC(=O)NC(Sc1ccc(Cl)cc1)C(Cl)(Cl)Cl (stereo not given) | inactive: 0.698% |
| O=C(NC(Sc1ccncn1)C(Cl)(Cl)Cl)c1ccccc1 (stereo not given) | inactive: -3.43% |
| Oc1ccccc1CNc1ccccn1 | inactive: -19.8% |
| Cc1ccc(OP(=O)(Nc2nccs2)Oc2ccc(C)cc2)cc1 | inactive: -0.875% |
| COc1ccccc1OP(=O)(Nc1ccc(C)cn1)Oc1ccccc1OC | inactive: -1.94% |
| COc1ccc(OP(C)(=O)Nc2ccccn2)cc1 (stereo not given) | inactive: -1.06% |
| CN1CCCC(OC(=O)C(c2ccccc2)c2ccccc2)C1 (stereo not given) | inactive: -4.88% |
| Clc1ccc(Cl)c(NC2=NCC(CBr)S2)c1 (stereo not given) | inactive: -4.17% |
| CN(C)CCOC(=O)C(O)(c1ccccc1)C1CCCC1 (stereo not given) | inactive: -3.31% |
| NC(=O)c1cc([N+](=O)[O-])cc([N+](=O)[O-])c1N | inactive: 7.16% |
| Cc1ccc(N/C(=N/P(=O)(N2CCOCC2)N2CCOCC2)N2CCOCC2)cc1 | inactive: 1.17% |
| COc1ccccc1OP(C)(=O)Nc1ccc(Br)cc1 (stereo not given) | inactive: -6.73% |
